Among the data in US20260000676A1, “CHROMAN DERIVATIVES AS ESTROGEN RECEPTOR DEGRADERS” (THE REGENTS OF THE UNIVERSITY OF MICHIGAN, priority 2022, published 2026) are IC50 values, retold here.

Experiment [1] concerns T47D cells. The experiment can be described thus: cells. The settings on record: Homo sapiens, 144 h, read-out: T47D Proliferation IC50 (nM).
In experiment [2] the test system is MCF-7 cells. The experiment can be described thus: cells. The settings on record: Homo sapiens, MCF7, 144 h, read-out: MCF7 Proliferation IC50 (nM).

With `COc1cc(N2CCC(CN3CCN4c5cc6c(cc5OC[C@H]4C3)C(=O)N([C@@H]3CCC(=O)NC3=O)C6)CC2)ccc1[C@H]1c2ccc(O)cc2OC[C@H]1c1ccccc1` (single isomer, unassigned) [Compound A122], the IC50 in experiment [1] and in experiment [2] was less than 50 nM in each case.
